Earlier results, collected in US20070092546A1, “Thiamin based insect repellant” (Violet Fire, LLC, priority 2005, published 2007).

Conditions: with most commercially available solvents; cited from earlier work

For Thiamin mononitrate, the solubility is listed as “not readily soluble”.
